AlphaSeq binding of Ab-95 light chain variants to a spike HR2 peptide

Reference: Engelhart et al. 2022, doi:10.1038/s41597-022-01779-4. File: FLAb, binding data.

Target: peptide PDVDLGDISGINAS, taken from heptad repeat 2 (HR2) of SARS-CoV-2 spike.

Parent scFv Ab-95: VH joined to VL by three GGGGS repeats. Changes lie in the light chain CDRs alone.
VH: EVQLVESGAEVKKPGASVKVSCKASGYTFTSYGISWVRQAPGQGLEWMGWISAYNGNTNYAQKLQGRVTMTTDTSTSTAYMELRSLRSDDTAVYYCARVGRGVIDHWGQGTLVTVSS
VL: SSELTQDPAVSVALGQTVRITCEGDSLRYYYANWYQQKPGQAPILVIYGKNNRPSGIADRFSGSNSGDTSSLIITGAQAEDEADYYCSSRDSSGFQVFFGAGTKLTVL

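Phage display of a naive human antibody library on the peptide gave the parent. In library AAYL52, one, two or three CDR residues were substituted; doubles and triples were drawn at random. In AlphaSeq, yeast of one mating type display the scFv and yeast of the other type display the target. The frequency of each diploid, read from paired DNA barcodes, reflects how well the two displayed proteins bind. Each replicate has its own calibration line, from reference interactions of the BCL2 family. There are three technical replicates.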

The parent's light chain CDRs are EGDSLRYYYAN, GKNNRPS, SSRDSSGFQVF; each variant's own CDRs replace them letter for letter. Values are log10 of the apparent Kd in nM; lower means stronger binding. An entry "n.d." has no value in the source: the pair was not observed among the diploids in that replicate. This suggests poor binding but is not conclusive. For reference, the parent read 2.31 as the reference entry and 2.25 as a member of this library. Nonspecific signal, from three strains lacking the peptide, appeared in 28% of pairings of library AAYL52, centred on 3.91 (5% of these signals below 2.90); values are not corrected for it. Also given: how often the same scFv was detected with the empty control strains, with their mean in brackets.

CDR-L1,CDR-L2,CDR-L3,log10 Kd (nM) by replicate,control signals
EGDSLVYYMAN,GKNNRPS,SSRDSSGMQVF,3.17 / 3.30 / 2.70,4/9 (4.43)
IGLSLRYYYAN,GVNNRPS,SSRDSSGFQVF,5.51 / 4.73 / 4.42,3/9 (4.11)
EGDSLRYYYAN,TCNNRPS,SSRDSSEFQVF,5.36 / n.d. / 3.65,2/9 (3.87)
EWKSNRYYYAN,GKNNRPS,SSRDSSGFQVF,3.46 / n.d. / n.d.,2/9 (3.63)
CGDSLRYYYAN,GKNNRPS,SSRDSKGFQVF,2.99 / 3.43 / 3.09,0/9
EGDSLRYYYAD,GKNNRPS,SSFDSVGFQVF,5.16 / n.d. / n.d.,2/9 (3.04)
EGDSWRYRYAN,GKNNRPS,SSSDSSGFQVF,3.54 / 5.07 / 4.63,3/9 (3.65)
EGDSLRYVYDN,GKNNRRS,SSRDSSGFQVF,n.d. / 3.76 / 3.76,3/9 (3.30)
EGDQLRYYYAN,VKNNRPS,SSRDSSGFQVR,4.12 / n.d. / 3.71,3/9 (4.21)
EGDSLRYYYYN,FNNNRPS,SSRDSSGFQVF,n.d. / n.d. / n.d.,1/9 (3.70)
LGDSLRYYYAN,GKNNSPS,HSRDSSGFQVF,3.30 / 3.83 / 4.04,3/9 (4.53)
EGDSLRYYYAN,GKNNRPS,PSRDCSGFAVF,2.29 / 2.73 / 2.13,0/9
WGDSLRYYYAV,GKNNRPS,SSRDSSGFQVG,n.d. / n.d. / n.d.,1/9 (4.72)
EGDSLRYYLAC,GKNNRPS,SSCDSSGFQVF,4.42 / n.d. / n.d.,4/9 (3.74)
EGDSLFTYYAN,GKNNRPS,SSRCSSGFQVF,2.82 / 2.67 / n.d.,2/9 (4.54)
EGDSLRYYYAN,GKNNRPV,WSRDSSGFQVF,2.50 / 2.13 / 2.06,5/9 (4.44)
EGDSLRYNYAN,GKNNRPS,SSRDSSGFHVF,0.61 / 0.58 / -0.11,8/9 (4.50)
EMDSLRYYYAN,GNNNQPS,SSRDSSGFQVF,4.18 / 2.93 / 3.28,3/9 (3.42)
EKDSSREYYAN,GKNNRPS,SSRDSSGFQVF,2.68 / 2.64 / 2.63,3/9 (3.71)
EGDELRYYYAN,GGNNFPS,SSRDSSGFQVF,4.26 / n.d. / 2.77,2/9 (3.72)
EGDPLRYYYAN,GKNNRPQ,SSRDSSGFQNF,n.d. / 3.25 / n.d.,0/9
EGDSLRYYYAN,GWNNRPS,SSRESSPFQVF,3.70 / n.d. / n.d.,3/9 (4.30)
EGDSLRYYYAN,GKRNRPS,SSRDSSGFLVI,n.d. / 3.74 / n.d.,2/9 (4.43)
EGDSLRYYYAN,GKNNRPS,SHRQSSGFCVF,n.d. / 3.56 / n.d.,0/9
EGDSLRYYYAN,GCNNTPS,SSRDSSGFQVF,4.25 / n.d. / n.d.,4/9 (4.26)
EGDSAGYYYAN,GKKNRPS,SSRDSSGFQVF,n.d. / 5.23 / n.d.,1/9 (4.54)
EGDSLRYYYAN,GLNNRPD,SSRDSSGFQPF,2.74 / 2.73 / 1.71,3/9 (3.55)
EGDSLRYTYAN,GKNNMPS,SSRWSSGFQVF,n.d. / 3.68 / n.d.,1/9 (3.19)
EGDSLRYYYDN,GKNNRPS,SSRDSVGFFVF,n.d. / n.d. / n.d.,0/9
EGDSLRYYYAN,GNNKRES,SSRDSSGFQVF,2.65 / 2.45 / 2.94,5/9 (4.25)
EGDSLRYYYAN,GKNNRPT,SSRDMSGFAVF,2.60 / 2.73 / 2.45,4/9 (3.75)
EGDSLRYYYAN,GKNNRLS,SNRDSKGFQVF,2.95 / 3.11 / 2.40,4/9 (3.80)
EGDSLRYLYAN,RKNNNPS,SSRDSSGFQVF,n.d. / n.d. / n.d.,0/9
EGRSLRYYYAN,GKDNRPS,SSRDSSDFQVF,3.00 / 3.46 / n.d.,4/9 (3.88)
FGDSLRYYYAN,GKNNRPI,SSRDSSVFQVF,3.89 / 3.70 / 4.61,3/9 (4.69)
EGDSRRYYYAN,GKNNRPS,SSRDSSGMQSF,3.61 / n.d. / n.d.,0/9
EGDYLRYYYAN,GKNNRPI,SSRDSSGFDVF,2.99 / 2.77 / 3.99,4/9 (4.03)
ESDSLRYPYSN,GKNNRPS,SSRDSSGFQVF,2.50 / 2.75 / 1.99,2/9 (3.99)
EGDSLRYYYAN,EKNNRPS,SFRDSSPFQVF,3.94 / n.d. / 4.19,1/9 (4.82)
ESDSLRYYYAN,TKNNRPS,SSRDSSGFQVF,3.70 / 3.67 / n.d.,5/9 (3.83)
EGDSLRYYYAN,GKNNYPS,SSRWSSDFQVF,n.d. / 5.48 / 3.81,7/9 (4.40)
EGDSLRFYYQN,GKNRRPS,SSRDSSGFQVF,3.69 / 4.20 / 3.00,4/9 (4.53)
EGDSLRYYYAN,GKWNRPS,SSRCSSNFQVF,3.62 / n.d. / n.d.,3/9 (4.10)
EGDSLKYYYAN,GKNNRPS,SSRDVTGFQVF,2.20 / 2.05 / 1.72,2/9 (3.34)
EGVSLRVYYAN,GKNNRPS,SSRDSSGFQLF,3.82 / n.d. / n.d.,5/9 (4.34)
EGDSLRYYVAN,GKNNRPS,SERDSSGFVVF,3.45 / 4.53 / 3.30,3/9 (4.47)
EIDSLRYYYYN,GKNNCPS,SSRDSSGFQVF,5.31 / 5.12 / n.d.,3/9 (3.83)
HGDSLRYYYAN,GKNNRPS,CSRDSSGFQVF,3.07 / 2.75 / 3.17,1/9 (3.56)
EGDSLRFYYAN,GKHNRPS,MSRDSSGFQVF,3.35 / 3.63 / 3.44,5/9 (3.97)
EGDSLRYYYAN,GKNNRPK,SSRDSSIFQWF,2.24 / 2.28 / 1.71,0/9
EGTSGRYYYAN,GCNNRPS,SSRDSSGFQVF,3.62 / 4.38 / n.d.,2/9 (2.63)

Again, the first 3 entries without any signal:

| CDR-L1 | CDR-L2 | CDR-L3 | log10 Kd (nM) by replicate | control signals |
|---|---|---|---|---|
| EGDSLRYYYYN | FNNNRPS | SSRDSSGFQVF | n.d. / n.d. / n.d. | 1/9 (3.70) |
| WGDSLRYYYAV | GKNNRPS | SSRDSSGFQVG | n.d. / n.d. / n.d. | 1/9 (4.72) |
| EGDSLRYYYDN | GKNNRPS | SSRDSVGFFVF | n.d. / n.d. / n.d. | 0/9 |